Laboratory results reported in patent publication US20240360179A1, “STAPLED PEPTIDES AND METHODS THEREOF” (FOG PHARMACEUTICALS, INC., priority 2021, published 2024).
Read-outs that look alike come from different tables or passages of the source.

By UniProt entry, the sequences of proteins in these tests, tags left out. Residues count along the entry.
UniProt P35222, whole entry: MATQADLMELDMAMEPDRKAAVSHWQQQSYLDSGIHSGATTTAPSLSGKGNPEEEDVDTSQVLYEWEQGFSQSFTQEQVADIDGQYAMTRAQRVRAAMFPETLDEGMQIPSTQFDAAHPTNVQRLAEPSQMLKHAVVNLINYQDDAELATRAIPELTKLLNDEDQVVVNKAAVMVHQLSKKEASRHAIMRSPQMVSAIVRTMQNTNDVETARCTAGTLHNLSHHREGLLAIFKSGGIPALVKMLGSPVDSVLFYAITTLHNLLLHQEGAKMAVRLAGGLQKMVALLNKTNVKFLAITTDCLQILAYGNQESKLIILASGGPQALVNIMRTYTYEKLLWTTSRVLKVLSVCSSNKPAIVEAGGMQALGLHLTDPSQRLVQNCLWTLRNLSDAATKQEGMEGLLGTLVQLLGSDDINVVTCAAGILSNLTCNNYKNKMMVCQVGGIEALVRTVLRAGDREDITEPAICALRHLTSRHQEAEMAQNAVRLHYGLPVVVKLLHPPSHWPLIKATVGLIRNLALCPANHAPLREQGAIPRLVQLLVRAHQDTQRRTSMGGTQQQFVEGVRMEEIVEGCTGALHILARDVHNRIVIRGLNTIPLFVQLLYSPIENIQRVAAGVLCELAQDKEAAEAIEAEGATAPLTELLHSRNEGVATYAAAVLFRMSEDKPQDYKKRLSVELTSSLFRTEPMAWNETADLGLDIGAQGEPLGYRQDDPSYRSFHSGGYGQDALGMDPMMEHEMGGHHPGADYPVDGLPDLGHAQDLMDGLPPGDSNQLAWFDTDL
UniProt P35222, 2-781: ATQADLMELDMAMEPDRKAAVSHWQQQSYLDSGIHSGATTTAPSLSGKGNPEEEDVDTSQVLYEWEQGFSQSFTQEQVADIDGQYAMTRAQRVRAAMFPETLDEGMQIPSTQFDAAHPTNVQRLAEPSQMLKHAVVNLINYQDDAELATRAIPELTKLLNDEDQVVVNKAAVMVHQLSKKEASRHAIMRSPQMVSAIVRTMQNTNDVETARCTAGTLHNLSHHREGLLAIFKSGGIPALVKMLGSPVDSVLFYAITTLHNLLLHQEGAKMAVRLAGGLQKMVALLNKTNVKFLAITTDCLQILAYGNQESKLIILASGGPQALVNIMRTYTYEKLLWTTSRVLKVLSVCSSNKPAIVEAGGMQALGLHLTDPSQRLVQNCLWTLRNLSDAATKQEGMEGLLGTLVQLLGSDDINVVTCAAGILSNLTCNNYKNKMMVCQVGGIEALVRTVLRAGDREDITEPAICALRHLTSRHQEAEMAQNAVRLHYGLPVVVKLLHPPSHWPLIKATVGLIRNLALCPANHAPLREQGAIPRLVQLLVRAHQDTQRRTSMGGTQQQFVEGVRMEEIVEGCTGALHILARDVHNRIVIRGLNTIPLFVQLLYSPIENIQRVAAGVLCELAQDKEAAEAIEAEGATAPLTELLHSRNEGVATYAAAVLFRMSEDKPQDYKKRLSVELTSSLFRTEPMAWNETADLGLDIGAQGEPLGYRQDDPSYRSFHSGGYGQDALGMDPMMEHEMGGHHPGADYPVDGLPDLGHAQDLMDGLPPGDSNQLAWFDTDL

Tests used:
[1] = molecular target: T1, full-length B-Catenin (Uniprot ID P35222) (Homo sapiens, UniProt P35222); assay type: binding
T1 construct: 10 nM full-length B-Catenin (Uniprot ID P35222)

[2] = molecular target: TCF/LEF luciferase reporter in DLD1 cells (Homo sapiens, UniProt P35222); test: TCF reporter assay in DLD1 cells (4% or 20% FBS); assay type: cell-based
[3] = molecular target: beta-catenin/TCF4 interaction (Homo sapiens, UniProt P35222); assay type: cell-based; design: host or cells: HEK293; conditions: read-out: NanoBRET Abs IC50
[4] = competition fluorescence polarization, read-out: beta-Catenin FP IC50
[5] = read-out: DLD1 4% Abs IC50, DLD1 reporter, 4% FBS
[6] = read-out: beta-catenin TCF4 competition FP assay IC50
[7] = read-out: beta-catenin TCF4 DLD1 cell reporter assay IC50
[8] = read-out: DLD1 4% Abs IC50, DLD1 TCF reporter, 4% FBS

| Substance | IC50 [1, 4] [nM] | IC50 [2, 5] [µM] | IC50 [3] [nM] | IC50 [1, 6] [nM] | IC50 [2, 7] [µM] | IC50 [2, 8] [µM] |
| --- | --- | --- | --- | --- | --- | --- |
| Ac-Ala-Ala-S5-Ala-Asp-Npg-B5-Asp-3COOHF-Aib-Ala-Phe-Lys*3-PyrS2-3Thi-BztA-GlnR*3-Ala [I-1284] | < 50 | > 5 |  |  |  |  |
| Ac-PL3-Asp-DipA-B5-Asp-3COOHF-Ala-Ala-Phe-Lys*3-PyrS2-3Thi-34ClF-GlnR*3-Ala-Ala-[Ac-PEG8]-Lys-NH2-NH2 [I-1788] | < 50 | 1 to 5 |  |  |  |  |
| Ac-PL3-Asp-DipA-B5-Asp-3COOHF-Ala-Ala-Phe-Lys*3-PyrS2-3Thi-34ClF-GlnR*3-Ala-Ala-[Ac-dPEG2]-Lys-NH2-NH2 [I-1787] | < 50 | 1 to 5 |  |  |  |  |
| Ac-PL3-Asp-DipA-B5-Asp-3COOHF-Ala-Ala-Phe-Lys*3-PyrS2-3Thi-34ClF-GlnR*3-Ala-Ala-[C18-PEG8]-Lys-NH2-NH2 [I-1792] | > 1000 | ≤ 1 |  |  |  |  |
| Ac-PL3-Asp-DipA-B5-Asp-3COOHF-Ala-Ala-Phe-Lys*3-PyrS2-3Thi-34ClF-GlnR*3-Ala-Ala-[C18-dPEG2]-Lys-NH2-NH2 [I-1791] | > 1000 | ≤ 1 |  |  |  |  |
| Ac-PL3-Asp-DipA-B5-Asp-3COOHF-Ala-Ala-Phe-Lys*3-PyrS2-3Thi-34ClF-GlnR*3-Ala-Ala-[Oct-PEG8]-Lys-NH2-NH2 [I-1790] | < 50 | 1 to 5 |  |  |  |  |
| Ac-PL3-Asp-DipA-B5-Asp-3COOHF-Ala-Ala-Phe-Lys*3-PyrS2-3Thi-34ClF-GlnR*3-Ala-Ala-[Oct-dPEG2]-Lys-NH2-NH2 [I-1789] | < 50 | 1 to 5 |  |  |  |  |
| Ac-PL3-Asp-Npg-B5-Asp-3COOHF-Aib-Ala-Phe-Leu-[4Abu]DapAc7-3thi-BztA-Ala-GlnR-NH2 [I-1363] | 50 to 200 | > 5 |  |  |  |  |
| Ac-PL3-Asp-Npg-B5-Asp-3COOHF-Aib-Ala-Phe-Leu-[SBut][CH2CH2NH]Dap-3thi-BztA-Ala-GlnR-NH2 [I-1364] | 50 to 200 | > 5 |  |  |  |  |
| Ac-PL3-Asp-Npg-B5-Asp-3COOHF-Aib-Ala-Phe-Lys*3-PyrS2-3Thi-BztA-GlnR*3-Aib-Ser-[mPEG8]-Lys-NH2 [I-1822] | < 50 | 1 to 5 |  |  |  |  |
| Ac-PL3-Asp-Npg-B5-Asp-3COOHF-Aib-Ala-Phe-Lys*3-PyrS2-3Thi-BztA-GlnR*3-Aib-Ser-[mPEG8]-Lys-NH2 [I-1823] | 50 to 200 | 1 to 5 |  |  |  |  |
| Ac-PL3-Asp-Npg-B5-Asp-3COOHF-Aib-Ala-Phe-Lys*3-PyrS2-3Thi-BztA-GlnR*3-Leu-Ser-[mPEG8]-Lys-NH2 [I-1820] | < 50 | 1 to 5 | 1500 to 3000 |  |  |  |
| Ac-PL3-Asp-Npg-B5-Asp-3COOHF-Aib-Ala-Phe-Lys*3-PyrS2-3Thi-BztA-GlnR*3-OH [I-1709] | < 50 | 1 to 5 |  |  |  |  |
| Ac-PL3-Asp-Npg-B5-Asp-3COOHF-Aib-Ala-Phe-Lys*3-PyrS2-3Thi-BztA-GlnR*3-Phe-NH2 [I-722] | < 50 | ≤ 1 | 1500 to 3000 |  |  |  |
| Ac-PL3-Asp-Npg-B5-Asp-3COOHF-Aib-Ala-Phe-Lys*3-PyrS2-3Thi-BztA-GlnR*3-Pro-NH2 [I-719] | < 50 | 1 to 5 | < 1500 |  |  |  |
| Ac-PL3-Asp-Npg-B5-Asp-3COOHF-Aib-Ala-Phe-Lys*3-PyrS2-3Thi-BztA-GlnR*3-Ser-NH2 [I-721] | < 50 | 1 to 5 | 1500 to 3000 |  |  |  |
| Ac-PL3-Asp-Npg-B5-Asp-3COOHF-Aib-Ala-Phe-Lys*3-PyrS2-3Thi-BztA-GlnR*3-Thr-Ala-[mPEG8]-Lys-NH2 [I-1815] | < 50 | 1 to 5 |  |  |  |  |
| Ac-PL3-Asp-Npg-B5-Asp-3COOHF-Aib-Ala-Phe-Lys*3-PyrS2-3Thi-BztA-GlnR*3-Val-Glu-[mPEG8]-Lys-NH2 [I-1817] | < 50 | 1 to 5 | 3000 to 10000 |  |  |  |
| Ac-PL3-Asp-Npg-B5-Asp-3COOHF-Aib-Ala-Phe-Lys*3-PyrS2-3Thi-BztA-GlnR*3-dPro-NH2 [I-720] | < 50 | 1 to 5 | 3000 to 10000 |  |  |  |
| Ac-PL3-Asp-Npg-B5-Asp-3COOHF-Aib-Ala-Phe-[13Ac]Cys-PyrS2-3Thi-BztA-Cys-Ala-NH2 [I-1282] | < 50 |  |  | 19 | 11 |  |
| Ac-PL3-Asp-Npg-B5-Asp-3COOHF-Aib-Ala-Phe-[33Oxe]Cys-PyrS2-3Thi-BztA-Cys-Ala-NH2 [I-1277] | < 50 |  |  | 31 | 18 |  |
| Ac-PL3-Asp-Npg-B5-Asp-3COOHF-Aib-Ala-Phe-[C3]hCys-PyrS2-3Thi-BztA-Cys-Ala-NH2 [I-1279] | < 50 | > 5 |  |  |  |  |

| Substance | IC50 [1, 4] [nM] | IC50 [2, 5] [µM] | IC50 [3] [nM] | IC50 [1, 6] [nM] | IC50 [2, 7] [µM] | IC50 [2, 8] [µM] |
| --- | --- | --- | --- | --- | --- | --- |
| Ac-PL3-Asp-Npg-B5-Asp-3COOHF-Aib-Ala-Phe-[IsoE]Cys-PyrS2-3Thi-BztA-Pen-Ala-NH2 [I-1458] | < 50 | 1 to 5 |  |  |  |  |
| Ac-PL3-Asp-Npg-B5-Asp-3COOHF-Aib-Ala-Phe-[IsoE]hCys-PyrS2-3Thi-BztA-Cys-Ala-NH2 [I-1281] | < 50 | 1 to 5 |  |  |  |  |
| Ac-PL3-Asp-Npg-B5-Asp-3COOHF-Aib-Ala-Phe-[Red]Cys-PyrS2-3Thi-BztA-Cys-Ala-NH2 [I-1275] | < 50 |  |  | 22 | 5.2 |  |
| Ac-PL3-Asp-Npg-B5-Asp-3COOHF-Aib-Ala-Phe-[Red]Cys-PyrS2-3Thi-BztA-Pen-Ala-NH2 [I-1457] | 50 to 200 | 1 to 5 |  |  |  |  |
| Ac-PL3-Asp-Npg-B5-Asp-3COOHF-Aib-Ala-Phe-[Red]hCys-PyrS2-3Thi-BztA-Cys-Ala-NH2 [I-1280] | < 50 | 1 to 5 |  |  |  |  |
| Ac-PL3-Asp-Npg-B5-Asp-3COOHF-Aib-Ala-Phe-[m5Meb]Cys-PyrS2-3Thi-BztA-Cys-Ala-NH2 [I-1365] | < 50 | > 5 |  | 42 |  |  |
| Ac-PL3-Asp-Npg-B5-Asp-3COOHF-Aib-Ala-Phe-[m5Meb]hCys-PyrS2-3Thi-BztA-Cys-Ala-NH2 [I-1366] | 200 to 750 | > 5 |  |  |  |  |
| Ac-PL3-Asp-Npg-B5-Asp-3COOHF-Aib-Ala-Phe-[m50Meb]Cys-PyrS2-3Thi-BztA-Pen-Ala-NH2 [I-1456] | 50 to 200 | > 5 |  |  |  |  |
| Ac-PL3-Asp-Npg-B5-Asp-3COOHF-Aib-Ala-Phe-[mPyr]Cys-PyrS2-3Thi-BztA-Pen-Ala-NH2 [I-1454] | < 50 | 1 to 5 |  |  |  |  |
| Ac-PL3-Asp-Npg-B5-Asp-3COOHF-Aib-Ala-Phe-[mXyl]Cys-PyrS2-3Thi-BztA-Cys-Ala-NH2 [I-1272] | < 50 |  |  | 15 | 5.5 |  |
| Ac-PL3-Asp-Npg-B5-Asp-TfeGA-Aib-Ala-Phe-Lys*3-PyrS2-2F3MeF-BztA-GlnR*3-Ala-NH2 [I-121] | < 50 |  | 1500 to 3000 |  |  | 1 to 5 |
| Ac-PL3-Asp-Npg-B5-Asp-TfeGA-Val-Ala-Phe-Lys*3-PyrS2-2F3MeF-BztA-GlnR*3-Ala-NH2 [I-125] | < 50 |  | > 10000 |  |  | 1 to 5 |
| Ac-S5-Ala-Asp-Npg-B5-Asp-3COOHF-Aib-Ala-Phe-Leu-[4Abu]DapAc7-3thi-BztA-Ala-GlnR*3-NH2 [I-1299] | 50 to 200 | > 5 |  |  |  |  |
| Ac-S5-Glu-Asp-Npg-B5-Asp-3COOHF-Aib-Ala-Phe-Lys*3-PyrS2-Phe-34ClF-GlnR*3-NH2 [I-1463] | < 50 | 1 to 5 | > 10000 |  |  |  |
| Ac-S5-Val-Asp-Npg-B5-Asp-3COOHF-Aib-Ala-Phe-Lys*3-PyrS2-Phe-34ClF-GlnR*3-NH2 [I-1466] | < 50 | 1 to 5 | > 10000 |  |  |  |
| Ac-S6-Ala-Asp-Npg-B5-Asp-3COOHF-Aib-Ala-Phe-Leu-[4Abu]DapAc7-3thi-BztA-Ala-GlnR*3-NH2 [I-1300] | 50 to 200 | > 5 |  |  |  |  |
| Ac-S6-Ala-Asp-Npg-B5-Asp-3COOHF-Aib-Ala-Phe-Lys*3-PyrS2-Phe-34ClF-GlnR*3-NH2 [I-1468] | < 50 | > 5 |  |  |  |  |
| Ac-S6-Glu-Asp-Npg-B5-Asp-3COOHF-Aib-Ala-Phe-Lys*3-PyrS2-Phe-34ClF-GlnR*3-NH2 [I-1467] | < 50 | 1 to 5 |  |  |  |  |
| Ac-S6-Pro-Asp-Npg-B5-Asp-3COOHF-Aib-Ala-Phe-Lys*3-PyrS2-Phe-34ClF-GlnR*3-NH2 [I-1452] | < 50 | 1 to 5 | 3000 to 10000 |  |  |  |
| Ac-S6-Val-Asp-Npg-B5-Asp-3COOHF-Aib-Ala-Phe-Lys*3-PyrS2-Phe-34ClF-GlnR*3-NH2 [I-1464] | < 50 | 1 to 5 |  |  |  |  |
| NPyroR3-Asp-Ala-B4-Asp-3COOHF-Aib-Ala-Phe-Lys*3-PyrS3-3Thi-BztA-GlnR*3-Ala-NH2 [I-1499] | < 50 | > 5 |  |  |  |  |
| NPyroR3-Asp-Ala-B5-Asp-3COOHF-Aib-Ala-Phe-Lys*3-PyrS2-3Thi-BztA-GlnR*3-Ala-NH2 [I-1500] | < 50 | > 5 |  |  |  |  |
